In patent US10308636B2, “Aromatic heterocyclic compound” (MITSUBISHI TANABE PHARMA CORPORATION, priority 2012, dated 2019):

System: Male KK-Ay mice
Assay: Body weight gain-suppressing, hypoglycemic and plasma insulin-decreasing action in KK-Ay mouse
Conditions: 30 mg/kg/day oral once a day for 2 weeks, KK-Ay mice on high fat diet; for Hypoglycemic action (30 mg/kg/day): blood sugar after overnight fast; for Hypoglycemic action (30 mg/kg/day) / Plasma insulin-decreasing action (30 mg/kg/day): relative to solvent control; for Plasma insulin-decreasing action (30 mg/kg/day): plasma insulin after overnight fast; for Body weight gain-suppressing action (30 mg/kg/day): relative to body weight gain of solvent control as 100%

| SMILES | Hypoglycemic action (30 mg/kg/day) [%] | Plasma insulin-decreasing action (30 mg/kg/day) [%] | Body weight gain-suppressing action (30 mg/kg/day) [%] |
| --- | --- | --- | --- |
| O=C(O)c1cccc(OCC2CCN(c3ccc(-c4nc(C(F)(F)F)c[nH]4)cn3)CC2)c1 | 36 | 53 | 21 |
| CC(C)(COc1ccc(-c2ccc(-c3nc(C(F)(F)F)n[nH]3)cc2)cn1)C(=O)O | 26 | 21 | 41 |
